Here are results for seven substances from patent publication US20050214310A1 (priority 2004, published 2005).

A word on the IC50: it is the point on the concentration scale where inhibition reaches its midpoint.

The test system of the assay is H3677 melanoma cell line. Briefly: In vitro cytotoxicity assay (Alamar Blue) on H3677 melanoma cell line. Conditions: drug alone, H3677 melanoma cells, 4 hr exposure, washing, 96 hr incubation at 37° C. The assay is classed as cell-based.
In turn, Mel-L-phenylglycine amide had an IC50 of 380 nM. In turn, Mel-L-Ser(OBz)-NH2 gave an IC50 of 100 nM. With Mel-L-Val-NH2 the figure was 370 nM. With Mel-L-Phe the figure was 7500 nM.

In turn, Mel-(1S,2R)-norephedrine came in with an IC50 of 20 nM. With Mel-L-Phe-ol the figure was 1700 nM; with Mel-L-Phe-L-Phe-NH2, 25 nM.
